Measurements reported in PubChem BioAssay AID1220 (Sanford-Burnham Center for Chemical Genomics, 2008).
This is a selection; strong and weak results do not stand in their true shares. Active and inactive are the calls of the source. Cut-off read from the data, not from the text of the source: active = inhibition above about 50%; inactive = the rest.

Amino acid sequences for entries named in this document (tags omitted). A change or cut given only in a name is not applied to a line headed by its entry.
UniProt P34949: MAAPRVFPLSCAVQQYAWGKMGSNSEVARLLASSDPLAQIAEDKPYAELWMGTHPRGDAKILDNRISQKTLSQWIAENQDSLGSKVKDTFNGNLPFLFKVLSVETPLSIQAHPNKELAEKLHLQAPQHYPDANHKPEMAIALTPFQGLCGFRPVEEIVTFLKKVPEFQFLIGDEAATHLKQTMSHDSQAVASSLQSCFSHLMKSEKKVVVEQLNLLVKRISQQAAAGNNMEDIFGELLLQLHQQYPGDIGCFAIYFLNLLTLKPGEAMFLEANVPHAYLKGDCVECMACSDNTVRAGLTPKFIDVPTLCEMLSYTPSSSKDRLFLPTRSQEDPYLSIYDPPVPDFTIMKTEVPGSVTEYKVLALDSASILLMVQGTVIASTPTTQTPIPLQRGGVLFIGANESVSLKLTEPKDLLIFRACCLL

Target: Mannose-6-phosphate isomerase (Homo sapiens) (UniProt P34949)
Assay: human PMI inhibitors, high substrate, primary screen, biochemical, fluorescence intensity, high mannose 6-phosphate (AID 1220)
Conditions: recombinant PMI enzyme, coupled fluorescence intensity; at 20 µM; active compounds read high

SMILES | inhibition
CC(C)(C)C(=O)NC(Sc1ccccc1)C(Cl)(Cl)Cl (configuration not stated) | inactive: 3.2%
O=P1(Nc2nc3ccc(Cl)cc3s2)COc2ccccc2O1 (configuration not stated) | inactive: 7.3%
CCOc1ccc(C2=NCC(CBr)S2)cc1 (configuration not stated) | inactive: -4.7%
CC(=O)Nc1ccc(Oc2c([N+](=O)[O-])cc([N+](=O)[O-])cc2[N+](=O)[O-])cc1 | inactive: 0.6%
O=C(NC1CCS(=O)(=O)C1)NP(=S)(Oc1ccccc1)Oc1ccccc1 (configuration not stated) | inactive: 15.3%
CCNC(=S)/N=C(\N)N[N+](=O)[O-] | inactive: -6.9%
c1ccc(-c2nn[nH]n2)c(-c2nn[nH]n2)c1 | inactive: -16.5%
CCOC(=O)NC(Sc1ccccc1)C(Cl)(Cl)Cl (configuration not stated) | inactive: 0.8%
O=c1c2cc([N+](=O)[O-])ccc2[nH]c2c([N+](=O)[O-])cc([N+](=O)[O-])cc12 | inactive: 26.3%
COC(=O)c1cc2c(s1)N=C(c1ccccc1)N(C)P2(=O)N1CCOCC1 (configuration not stated) | inactive: -4.1%
Cc1ccc(OP(=O)(Nc2ccccn2)Oc2ccc(C)cc2)cc1 | inactive: 6%
CC(=O)NC(SC(=S)N(CC(C)C)CC(C)C)C(Cl)(Cl)Cl (configuration not stated) | inactive: -8.7%
CCC(=O)N1C2C3N(C(=O)CC)C1C1N(C(=O)CC)C(C(N1C(=O)CC)N3C(=O)CC)N2C(=O)CC | inactive: 1.7%
O=P(Nc1ccccn1)(c1ccc(Br)cc1)c1ccc(Br)cc1 | inactive: 2.6%
C(Cc1nn[nH]n1)Cc1nn[nH]n1 | inactive: -24.9%
O=C(OC1CN2CCC1CC2)c1cccc(Cl)c1 (configuration not stated) | inactive: 5.7%
CC(=O)NC(SC(=S)N(C)C)C(Cl)(Cl)Cl (configuration not stated) | inactive: -3%
c1nnnn1CCn1cnnn1 | inactive: 2.3%
O=P(Nc1nccs1)(c1ccccc1)c1ccccc1 | inactive: -5.3%
CC(C)C(=O)NC(Sc1ccccc1)C(Cl)(Cl)Cl (configuration not stated) | inactive: -1.9%
CC(=O)N1C2C3N(C(C)=O)C1C1N(C(C)=O)C(C(N1C(C)=O)N3C(C)=O)N2C(C)=O | inactive: 3.1%
O=[N+]([O-])c1cccc2n[nH]nc12 | inactive: -7.7%
Cc1ccc(NP(=O)(Oc2ccccc2)Oc2ccccc2)nc1 | inactive: 10.1%
O=[N+]([O-])c1cc([N+](=O)[O-])c(CCNc2ccccc2)c([N+](=O)[O-])c1 | inactive: 6%
COc1ccc(C2=NCC(CBr)S2)cc1 (configuration not stated) | inactive: -8.4%
CC(C)=N/N=C(\N)N[N+](=O)[O-] | inactive: -9.5%

SMILES | inhibition
CN(C)C(=O)OCCc1n(C)cc[n+]1C | inactive: -6.6%
CC1CCN(C(=O)Oc2c(Cl)cc(Cl)c3cccnc23)CC1 | inactive: -0.7%
CCN(/C(=N/P(=O)(N1CCOCC1)N1CCOCC1)N1CCOCC1)c1ccc(OC)cc1 | inactive: -0.7%
O=[N+]([O-])c1ncn(CCn2ncnc2[N+](=O)[O-])n1 | inactive: 15%
CCOP(=O)(Nc1ccccc1)OCC | inactive: -3.4%
Cc1cc(SC(NC(=O)c2ccc(F)cc2)C(Cl)(Cl)Cl)ncn1 (configuration not stated) | inactive: -37.8%
CCN(N=Nc1nonc1N)c1nonc1N | inactive: 12.7%
COc1ccccc1OP(=O)(Nc1ccc(C)cn1)Oc1ccccc1OC | inactive: 2%
Clc1ccc(Cl)c(NC2=NCC(CBr)S2)c1 (configuration not stated) | inactive: -9.9%
CN1CCCC(OC(=O)C(c2ccccc2)c2ccccc2)C1 (configuration not stated) | inactive: -11.3%
NC(=O)c1cc([N+](=O)[O-])cc([N+](=O)[O-])c1N | inactive: -4.8%
Cc1ccc(N/C(=N/P(=O)(N2CCOCC2)N2CCOCC2)N2CCOCC2)cc1 | inactive: -3.2%
CC(C)CC(=O)NC(Sc1ccc(Cl)cc1)C(Cl)(Cl)Cl (configuration not stated) | inactive: -2.5%
Oc1ccccc1CNc1ccccn1 | inactive: 1.2%
Cc1c2non([O-])c-2c(C)[n+](=O)[n+]1[O-] | inactive: 37.7%
O=C(NC(Sc1ccncn1)C(Cl)(Cl)Cl)c1ccccc1 (configuration not stated) | inactive: -66.1%
COc1ccc2nc(NP(=O)(c3ccccc3)c3ccccc3)sc2c1 | inactive: -0.9%
O=C(OC1CN2CCC1CC2)C12CC3CC(CC(C3)C1)C2 (configuration not stated) | inactive: -6.1%
Cc1cc(=O)[nH]c(N[N+](=O)[O-])n1 | inactive: -2%
Cc1c2c(nc3ccccc13)SC(C(Cl)Cl)C2 (configuration not stated) | inactive: 0.6%
COc1ccc(N/C(=N/P(=O)(N2CCOCC2)N2CCOCC2)N2CCOCC2)cc1 | inactive: 1.2%
Cc1ccc2nc3c(c(C)c2c1)CC(C(Cl)Cl)S3 (configuration not stated) | inactive: 1.1%
CCN(CC)C(=S)SC(NC=O)C(Cl)(Cl)Cl (configuration not stated) | inactive: 0.3%
CC(C)NC(=O)NP(=O)(Oc1ccccc1)Oc1ccccc1 | inactive: 8.9%
O=[N+]([O-])c1cc([N+](=O)[O-])c(-c2ccn[nH]2)s1 | inactive: 15%
ClCCSc1nnc(-c2cccnc2)o1 | inactive: 14%

SMILES | inhibition
Cc1cc(SC(NC(=O)c2ccccc2)C(Cl)(Cl)Cl)nc(C(C)C)n1 (configuration not stated) | inactive: -17.2%
Cc1cc(SC(NC=O)C(Cl)(Cl)Cl)ncn1 (configuration not stated) | inactive: -76.6%
O=P(Nc1ccccn1)(c1cccc2ccccc12)c1cccc2ccccc12 | inactive: 8.8%
O=C(COc1ccccc1)OC1CN2CCC1CC2 (configuration not stated) | inactive: -0.6%
COP1(=S)c2c(C)nn(CCC#N)c2N=C(c2ccc(F)cc2)N1C (configuration not stated) | inactive: -6.4%
CCC(C)N(CC(C)C)C(=S)SC(NC(C)=O)C(Cl)(Cl)Cl (configuration not stated) | inactive: -7.3%
Clc1n[nH]nc1-c1nn[nH][15n]1 | inactive: 3.7%
O=P1(Nc2ccccn2)COc2ccccc2OC1 | inactive: 3.9%
CN(C(=O)Cc1ccc(Cl)c(Cl)c1)[C@@H]1CCCC[C@H]1N1CCCC1 | inactive: 1.5%
CC(C)/C=N\N=C(\N)N[N+](=O)[O-] | inactive: -12.1%
CN(C)C1(CNC(=O)c2ccc(S(C)(=O)=O)cc2)CCCCC1 | inactive: 9.2%
Cc1nn(-c2ccccc2)c2c1P(=O)(N1CCOCC1)N(C)C(c1ccccc1)=N2 (configuration not stated) | inactive: 6.7%
CC1CCC(C(C)C)C(OP(=O)(Nc2ccccn2)c2ccccc2)C1 (configuration not stated) | inactive: -2.4%
O=P1(Nc2ccc(Br)cn2)COc2ccccc2OC1 | inactive: -6.5%
Cc1ccc(OCC(=O)OC2CN3CCC2CC3)cc1 (configuration not stated) | inactive: 7.7%
O=P1(Nc2ncccn2)COc2ccccc2OC1 | inactive: -20.7%
CCOP1(=S)c2c(C)nn(CCC#N)c2N=C(c2ccccc2F)N1C (configuration not stated) | inactive: -0.3%
O=P(Nc1nccs1)(Oc1ccccc1)Oc1ccccc1 | inactive: 2.8%
O=[N+]([O-])c1ccc2c(c1)nnn2O | inactive: -8.8%
CCOP1(=S)c2c(C)nn(CCC#N)c2N=C(c2ccc(F)cc2)N1C (configuration not stated) | inactive: -2.1%
Cc1cccc(OCC(=O)OC2CN3CCC2CC3)c1 (configuration not stated) | inactive: 3.8%
COc1cc(C(=O)NCC2(N3CCOCC3)CCCCC2)cc(Cl)c1OC(C)C | inactive: -5.8%
COc1cc(C2NCCC3(OCCO3)C2(C)C)cc(OC)c1OC (configuration not stated) | inactive: -2.3%
CCOP(=O)(Nc1cccc2ccccc12)OCC | inactive: 3.2%
Cc1ccc(NCCc2c([N+](=O)[O-])cc([N+](=O)[O-])cc2[N+](=O)[O-])cc1 | inactive: 25.3%
